The numbers were not newly measured in patent US9255295B2, “Method for evaluating the sensitizing potential of a test compound” (IMMUNOSEARCH, priority 2010, dated 2016), which cites them from elsewhere.

For the data set the following is noted: official classification: non-sensitizer, irritant, or sensitizing Extreme/Strong/Moderate/Weak; cited from earlier work.

Regarding `O=[N+]([O-])c1cc([N+](=O)[O-])c(S(=O)(=O)O)c([N+](=O)[O-])c1`, the Class entry is reported as “S”.
